The assay deals with Peroxisome proliferator-activated receptor gamma (Mus musculus) (UniProt P37238). In words: Agonist activity at PPARgamma in mouse 3T3L1 cells assessed as 4619 microarray gene expression relative to rosiglitazone. It is filed as functional, cell-based. The note with it: 3T3-L1.

Chains of the proteins cited; added tags and fusions are not shown.
UniProt P37238, whole entry: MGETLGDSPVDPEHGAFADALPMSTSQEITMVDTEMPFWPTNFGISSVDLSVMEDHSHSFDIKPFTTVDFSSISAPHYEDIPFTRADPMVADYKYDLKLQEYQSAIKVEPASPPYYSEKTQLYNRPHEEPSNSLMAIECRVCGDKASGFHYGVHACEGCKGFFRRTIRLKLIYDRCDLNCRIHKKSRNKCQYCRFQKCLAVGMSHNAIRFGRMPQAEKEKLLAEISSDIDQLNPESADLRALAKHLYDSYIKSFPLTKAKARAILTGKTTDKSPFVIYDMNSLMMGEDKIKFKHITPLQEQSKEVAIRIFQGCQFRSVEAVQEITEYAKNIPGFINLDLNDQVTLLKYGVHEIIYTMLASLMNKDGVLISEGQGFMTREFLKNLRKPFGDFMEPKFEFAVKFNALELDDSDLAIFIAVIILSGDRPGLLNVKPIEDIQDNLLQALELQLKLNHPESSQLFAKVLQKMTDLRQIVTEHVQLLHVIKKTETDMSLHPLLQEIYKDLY

With `COc1ccc2c(-n3c(=O)n(Cc4cccc([C@@]5(C)OC(=O)NC5=O)c4)c4ccccc43)noc2c1`, the Ratio amounted to 0.71.
